Laboratory results as given in publication PMC6270119, “Application of Reductive ^13C-Methylation of Lysines to Enhance the Sensitivity of Conventional NMR Methods” (Molecules, 2013).

What was measured:
[1] = target: fully post-translationally modified (farnesylated and methylated) hypervariable region peptide of K-Ras4B (human); assay: ITC; CaM in the syringe titrated into the peptide (FM-HVR or HVR) in the 1.4 mL cell; 25 °C; 50 mM Tris-citrate pH 6.5, 50 mM NaCl, 5 mM MgCl2, 1 mM TCEP, 10 mM CaCl2; 1 mM CaM into 70 µM HVR, 33 µM CaM into 2.9 µM FM-HVR; one set of binding sites model
[2] = target: hypervariable region (HVR) peptide of K-Ras4B, non-modified (human); assay: as above

calmodulin (from UniProt P0DP23 2-149) (natural protein)
Kd [1]: 350 nM
dH [1]: -14.9 kcal/mol
dH [2]: 0.65 kcal/mol
